Laboratory results taken from PubChem BioAssay AID940 (Emory University Molecular Libraries Screening Center, 2007).
The entries are a selection whose mix differs from that of the whole data set. Some of these compounds have results that are not shown, active ones among them. Activity calls are given as the source filed them.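 How the source made its calls: active means compounds whose cAMP rise, as percent of the full-agonist control response, exceeds 60; inactive means the rest.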

Sequences of proteins named here, by UniProt entry; tags and fusion partners are left off.
UniProt P43116, whole entry: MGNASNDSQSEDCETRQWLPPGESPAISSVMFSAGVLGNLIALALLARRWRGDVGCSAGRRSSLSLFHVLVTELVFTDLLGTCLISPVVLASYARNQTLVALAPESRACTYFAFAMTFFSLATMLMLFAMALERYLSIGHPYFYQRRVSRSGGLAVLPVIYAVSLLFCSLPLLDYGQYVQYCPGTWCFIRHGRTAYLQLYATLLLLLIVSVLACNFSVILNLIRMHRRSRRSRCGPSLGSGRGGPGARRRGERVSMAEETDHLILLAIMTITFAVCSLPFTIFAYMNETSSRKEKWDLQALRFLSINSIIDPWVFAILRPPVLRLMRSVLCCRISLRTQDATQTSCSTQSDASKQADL

molecular target: Prostaglandin E2 receptor EP2 subtype (Homo sapiens) (UniProt P43116); assay: EP2 receptor modulators, cAMP readout, primary screen, cell-based, HTRF cAMP, PGE2 stimulation (AID 940); conditions: EP2-expressing cells, cAMP HTRF FRET, PGE2 co-stimulation; at 25 µM; hits give high values;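 further: rat C6 glioma line stably carrying human EP2 under a CMV promoter; the protocol text gives 20 µM as final concentration; 100% = response of wells given 1 µM PGE2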

Which induction does the source give for `COc1ccc(Br)c(C(=O)NCC2(N3CCCCC3)CCCCC2)c1` here?
Its induction is inactive: 6.7%.

`CN(C)c1cccc(C(=O)NCC2(N(C)C)CCCCC2)c1` was tested. Which induction did it give?
Its induction is inactive: 15.1%.

How did the induction turn out when `CN1CCC[C@H](OC(=O)[C@](O)(c2ccccc2)C2CCCC2)C1` was run?
Its induction is inactive: 0.89%.

`O=C(OC1CN2CCC1CC2)C(CO)(c1ccccc1)c1ccccc1` (stereo not drawn) was tested. Which induction did it give?
The induction was inactive: 0.02%.

How did the induction turn out when `C=C(C)C#C[C@@](O)(C(=O)OC1CCN(C)CC1)c1ccccc1` was run?
Its induction is inactive: 4.64%.

Which induction does the source give for `COc1cccc(C(=O)NCC2(N3CCCCC3)CCCCC2)c1` here?
The induction was inactive: 20.7%.

Which induction does the source give for `C=CCN1CCN(CCOC(=O)C(O)(c2ccccc2)c2ccccc2)CC1` here?
The induction was inactive: 20.8%.

`CCN1CCCC(OC(=O)C2(O)c3ccccc3C=Cc3ccccc32)C1` (stereo not drawn) was tested. Which induction did it give?
The induction was inactive: -4.54%.

`CN(C)C1CCCC1OC(=O)C(O)(c1ccccc1)c1ccccc1` (stereo not drawn) was tested. Which induction did it give?
Its induction is inactive: 13.2%.

With `Cc1ccccc1C(=O)NCC1(N2CCCCC2)CCCCC1` as the compound, how does the induction read?
Its induction is inactive: -19.2%.

How did the induction turn out when `CCN(CC)CC(C)C(C)OC(=O)C(O)(c1ccccc1)c1ccccc1` (stereo not drawn) was run?
The induction was inactive: 14.3%.

With `CC(C)N1C(=O)CC2(CCN(CCOC(=O)C(O)(c3ccccc3)c3ccccc3)CC2)C1=O` as the compound, how does the induction read?
The induction was inactive: 4.69%.

How did the induction turn out when `O=C(NCC1(N2CCCCC2)CCCCC1)c1cc([N+](=O)[O-])ccc1Cl` was run?
The induction was inactive: -8.27%.
